Earlier results in patent publication US10883993B2, “P53 biomarkers” (MULTIVIR INC., priority 2008, dated 2021).

Test system: SCCHN
Conditions: monotherapy studies in SCCHN, ITT population, standard of care drugs; cited from earlier work

Cetuximab: monoclonal antibody ERBITUX® (cetuximab)
Median Overall Survival: 5.8 months
